Measurements published in EPA's aquatic toxicity sets.

Legend:
[1] = test system: Daphnia magna; assay: 48 h LC50 (-log10 mol/L); higher = more toxic
[2] = test system: Pimephales promelas; assay: 96 h LC50 (-log10 mol/L); higher = more toxic
[3] = test system: Tetrahymena pyriformis; assay: 48 h IGC50 (-log10 mol/L); higher = more toxic

In the case of `CCCCOCCCC`, the “48 h LC50 (-log10 mol/L)” value [1] is reported as 3.7.
`c1ccc2cccc-2cc1` was tested, and the “96 h LC50 (-log10 mol/L)” value [2] was 4.15.
With `c1ccc(-c2ccccn2)cc1` the “48 h IGC50 (-log10 mol/L)” value [3] was 3.27.
